Measurements as given in US12583839B2, “PD-L1 antagonist compound” (ADLAI NORTYE BIOPHARMA CO., LTD., priority 2019, dated 2026).

The chains behind the UniProt entries cited, without tags or fusion partners. Residues count along the entry.
UniProt Q9NZQ7, 19-290 limits assumed: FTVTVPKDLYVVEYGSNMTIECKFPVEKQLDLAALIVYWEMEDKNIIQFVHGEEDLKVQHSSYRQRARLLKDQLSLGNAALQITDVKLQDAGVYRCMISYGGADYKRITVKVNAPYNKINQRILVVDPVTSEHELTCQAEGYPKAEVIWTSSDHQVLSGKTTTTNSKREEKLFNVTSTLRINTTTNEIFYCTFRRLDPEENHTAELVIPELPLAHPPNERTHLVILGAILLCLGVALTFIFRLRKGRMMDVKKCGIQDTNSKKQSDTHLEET

Target: PD-1/PD-L1 (Homo sapiens, UniProt Q9NZQ7)
Assay: Detection of biological activity of PD-1/PD-L1 signaling inhibition at the cellular level (NFAT luciferase reporter, PD-1/NFAT-Reporter-Jurkat cells co-cultured with TCR activator/PD-L1-CHO cells)
Settings: read-out: EC50 NFAT Luciferase; PD-1/NFAT-Reporter-Jurkat + TCR activator/PD-L1-CHO co-culture, 6 hours; Atezolizumab as positive control
Text: Detection of Biological Activity of PD-1/PD-L1 Signaling Inhibition at the Cellular Level
This detection method is used for evaluating the biological activity of the compounds described in the present invention at the cellular level.
This detection method uses the luciferase reporter gene method to detect the biological activity of the compound on the inhibition of PD-1/PD-L1 signal at the cellular level. PD-1/NFAT—Reporter—Jurkat cells stably express human PD-1 and express the luciferase reporter gene regulated by NFAT elements; TCR activator/PD-L1-CHO cells stably express human PD-L1 and TCR activator elements. When the two cell lines were co-cultured, the binding of PD-1/PD-L1 inhibited the TCR signaling pathway, thereby inhibiting the expression of the downstream NFAT-controlled luciferase reporter gene. When PD-1/PD-L1 antibody or inhibitor is added, this inhibitory effect is reversed and luciferase is expressed, so that the effect of PD-1/PD-L1 inhibitor on luciferase activity can be detected.
PD-1/NFAT—Reporter—Jurkat cell (Cat: 60535) and TCR activator/PD-L1-CHO cell (Cat: 60536) were purchased from BPS Bioscience. Anti-human PD-L1 antibody (Atezolizumab, Cat: A2004) was purchased from Selleck; luciferase reporter gene expression detection kit (ONE-Glo™ Luciferase Assay System, Cat: E6120) was purchased from Promega; multifunction plate reader (SpectraMax i3x) was purchased from Molecular Devices.
The PD-1/NFAT—Reporter—Jurkat cells and TCR activator/PD-L1-CHO cells were cultured according to the routine cell culture protocol.
TCR activator/PD-L1-CHO cells were harvested and seeded into a 96-well culture plate at 35,000 cells/well in a medium volume of 100 μl and incubated overnight at 37° C. The next day, the medium was discarded, compound was added and incubated for 30 minutes, while a solvent control (dimethyl sulfoxide, DMSO, final concentration of 0.1%) and PD-L1 antibody (Atezolizumab, final concentration of about 10 nM) as positive controls were set. PD-1/NFAT-reporter-Jurkat cells were then added. After culturing for 6 hours, the luciferase activity was detected according to the instructions of the luciferase detection reagent.
Using PD-L1 antibody as a positive control, calculate the inhibition rate of PD-1/PD-L1 binding of the test compound (%)=(chemiluminescence value of compound treated wells/average value of chemiluminescence value of solvent control wells−1)/(average value of chemiluminescence value of PD-L1 antibody well/average value of chemiluminescence value of solvent control well−1)×100%.
According to the above detection method, the compounds of the present invention were evaluated for their biological activity at the cellular level, and the activity results are shown in the following table.

Compound	EC50 [nM]
COc1cc(Cn2ncc3c(-c4cccc(-c5cc(F)c(CNC[C@@H]6CCC(=O)N6)c(OC)c5)c4Cl)cccc32)c(C#N)cc1CN(C)[C@H]1CC[C@H](C(=O)O)CC1	15
COc1cc(-c2cccc(-c3cccc4c3cnn4Cc3cc(OC)c(CN(C4CC4)[C@H]4CC[C@@H](C(=O)O)CC4)cc3Cl)c2Cl)ccc1CNC[C@@H]1CCC(=O)N1	520
COc1cc(Cn2ncc3c(-c4cccc(-c5cnc(CNC[C@@H]6CCC(=O)N6)c(OC)c5)c4Cl)cccc32)c(Cl)cc1CN(C)C12CCC(C(=O)O)(CC1)CC2	133
COc1cc(Cn2ncc3c(-c4cccc(-c5ccc(CNC[C@@H]6CCC(=O)N6)cc5)c4Cl)cccc32)c(Cl)cc1CN1CC[C@H](C(=O)O)C1	488
COc1cc(-c2cccc(-c3cccc4c3cnn4Cc3cc(OC)c(CN(C)C45CCC(C(=O)O)(CC4)CC5)cc3Cl)c2C)ncc1CNC[C@@H]1CCC(=O)N1	98
